Publication PMC12678819, “Targeting bacterial kinases as a strategy to counteract antibiotic resistance” (2025)

Sequences of proteins named here, by UniProt entry; tags and fusion partners are left off. A change or cut given only in a name is not applied to a line headed by its entry. Residues count along the entry.
UniProt Q14680, 1-340 limits assumed: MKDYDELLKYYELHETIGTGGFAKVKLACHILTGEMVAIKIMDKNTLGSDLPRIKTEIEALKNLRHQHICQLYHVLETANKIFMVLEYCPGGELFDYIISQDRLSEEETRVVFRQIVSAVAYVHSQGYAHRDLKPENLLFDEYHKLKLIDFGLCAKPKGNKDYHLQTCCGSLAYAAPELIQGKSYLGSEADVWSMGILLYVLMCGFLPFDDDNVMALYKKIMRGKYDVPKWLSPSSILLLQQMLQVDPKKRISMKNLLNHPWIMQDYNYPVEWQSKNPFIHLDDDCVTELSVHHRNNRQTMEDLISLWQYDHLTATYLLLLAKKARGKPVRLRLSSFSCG
UniProt O96013, 291-591 limits assumed: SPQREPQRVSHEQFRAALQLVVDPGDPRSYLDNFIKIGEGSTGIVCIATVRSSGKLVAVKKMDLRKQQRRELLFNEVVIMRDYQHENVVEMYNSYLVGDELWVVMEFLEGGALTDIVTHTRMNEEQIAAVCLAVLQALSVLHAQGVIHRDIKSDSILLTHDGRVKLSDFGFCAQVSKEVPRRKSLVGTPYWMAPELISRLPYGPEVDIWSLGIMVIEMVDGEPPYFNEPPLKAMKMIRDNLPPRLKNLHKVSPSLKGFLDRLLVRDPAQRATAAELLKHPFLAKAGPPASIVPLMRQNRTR
UniProt Q13554, 14-272 limits assumed: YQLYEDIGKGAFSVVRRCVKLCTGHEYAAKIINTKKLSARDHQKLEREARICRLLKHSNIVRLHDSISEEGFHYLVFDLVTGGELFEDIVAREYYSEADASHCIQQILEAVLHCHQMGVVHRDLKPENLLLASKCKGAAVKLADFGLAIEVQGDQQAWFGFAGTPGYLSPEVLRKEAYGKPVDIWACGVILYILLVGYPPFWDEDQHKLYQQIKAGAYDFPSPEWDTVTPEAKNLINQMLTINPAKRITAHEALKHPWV
UniProt Q9Y243, 148-479 limits assumed: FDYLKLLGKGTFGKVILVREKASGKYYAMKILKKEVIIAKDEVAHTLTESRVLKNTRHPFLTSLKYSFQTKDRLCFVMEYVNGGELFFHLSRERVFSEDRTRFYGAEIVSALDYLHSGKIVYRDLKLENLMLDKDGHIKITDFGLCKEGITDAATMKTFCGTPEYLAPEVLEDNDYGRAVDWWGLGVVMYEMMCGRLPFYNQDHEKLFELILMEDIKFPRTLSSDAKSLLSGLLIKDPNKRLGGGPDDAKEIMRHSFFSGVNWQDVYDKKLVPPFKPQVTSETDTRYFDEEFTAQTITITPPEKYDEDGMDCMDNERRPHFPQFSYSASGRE
UniProt Q13873, 203-504 limits assumed: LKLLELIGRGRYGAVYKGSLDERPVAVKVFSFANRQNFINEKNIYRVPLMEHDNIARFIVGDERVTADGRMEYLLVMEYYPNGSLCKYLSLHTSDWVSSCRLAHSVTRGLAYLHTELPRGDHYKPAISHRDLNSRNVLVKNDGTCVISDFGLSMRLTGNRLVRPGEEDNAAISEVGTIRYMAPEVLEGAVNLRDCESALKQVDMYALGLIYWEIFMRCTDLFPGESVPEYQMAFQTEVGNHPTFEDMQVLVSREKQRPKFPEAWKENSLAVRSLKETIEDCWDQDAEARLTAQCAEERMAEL
UniProt O14965, 122-403 limits assumed: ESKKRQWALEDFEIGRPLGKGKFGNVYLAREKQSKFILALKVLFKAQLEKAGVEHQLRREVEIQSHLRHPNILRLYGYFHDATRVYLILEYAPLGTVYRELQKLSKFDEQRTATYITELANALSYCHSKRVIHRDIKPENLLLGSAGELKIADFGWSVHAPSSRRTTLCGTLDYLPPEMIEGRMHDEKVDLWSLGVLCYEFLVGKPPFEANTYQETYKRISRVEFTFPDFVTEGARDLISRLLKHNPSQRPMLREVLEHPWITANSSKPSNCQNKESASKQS
UniProt P22830, 55-423 limits assumed: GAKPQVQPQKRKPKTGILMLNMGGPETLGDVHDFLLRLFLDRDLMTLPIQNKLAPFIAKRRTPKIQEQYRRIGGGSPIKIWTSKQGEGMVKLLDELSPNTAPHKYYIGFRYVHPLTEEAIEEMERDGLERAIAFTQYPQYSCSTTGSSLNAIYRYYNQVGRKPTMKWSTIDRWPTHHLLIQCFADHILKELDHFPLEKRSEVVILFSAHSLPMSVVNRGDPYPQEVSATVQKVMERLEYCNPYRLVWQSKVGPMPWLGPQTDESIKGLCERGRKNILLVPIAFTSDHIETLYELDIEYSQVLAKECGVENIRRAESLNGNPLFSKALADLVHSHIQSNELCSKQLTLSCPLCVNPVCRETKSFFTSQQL
UniProt O75582, 426-687 limits assumed: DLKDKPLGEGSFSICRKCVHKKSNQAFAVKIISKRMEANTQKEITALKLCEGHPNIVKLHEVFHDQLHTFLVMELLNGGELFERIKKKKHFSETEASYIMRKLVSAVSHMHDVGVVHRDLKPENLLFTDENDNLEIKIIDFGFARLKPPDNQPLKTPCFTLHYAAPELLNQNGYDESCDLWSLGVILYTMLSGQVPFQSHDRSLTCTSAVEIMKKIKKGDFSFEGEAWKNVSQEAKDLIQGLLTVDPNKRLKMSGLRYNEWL
UniProt P55201: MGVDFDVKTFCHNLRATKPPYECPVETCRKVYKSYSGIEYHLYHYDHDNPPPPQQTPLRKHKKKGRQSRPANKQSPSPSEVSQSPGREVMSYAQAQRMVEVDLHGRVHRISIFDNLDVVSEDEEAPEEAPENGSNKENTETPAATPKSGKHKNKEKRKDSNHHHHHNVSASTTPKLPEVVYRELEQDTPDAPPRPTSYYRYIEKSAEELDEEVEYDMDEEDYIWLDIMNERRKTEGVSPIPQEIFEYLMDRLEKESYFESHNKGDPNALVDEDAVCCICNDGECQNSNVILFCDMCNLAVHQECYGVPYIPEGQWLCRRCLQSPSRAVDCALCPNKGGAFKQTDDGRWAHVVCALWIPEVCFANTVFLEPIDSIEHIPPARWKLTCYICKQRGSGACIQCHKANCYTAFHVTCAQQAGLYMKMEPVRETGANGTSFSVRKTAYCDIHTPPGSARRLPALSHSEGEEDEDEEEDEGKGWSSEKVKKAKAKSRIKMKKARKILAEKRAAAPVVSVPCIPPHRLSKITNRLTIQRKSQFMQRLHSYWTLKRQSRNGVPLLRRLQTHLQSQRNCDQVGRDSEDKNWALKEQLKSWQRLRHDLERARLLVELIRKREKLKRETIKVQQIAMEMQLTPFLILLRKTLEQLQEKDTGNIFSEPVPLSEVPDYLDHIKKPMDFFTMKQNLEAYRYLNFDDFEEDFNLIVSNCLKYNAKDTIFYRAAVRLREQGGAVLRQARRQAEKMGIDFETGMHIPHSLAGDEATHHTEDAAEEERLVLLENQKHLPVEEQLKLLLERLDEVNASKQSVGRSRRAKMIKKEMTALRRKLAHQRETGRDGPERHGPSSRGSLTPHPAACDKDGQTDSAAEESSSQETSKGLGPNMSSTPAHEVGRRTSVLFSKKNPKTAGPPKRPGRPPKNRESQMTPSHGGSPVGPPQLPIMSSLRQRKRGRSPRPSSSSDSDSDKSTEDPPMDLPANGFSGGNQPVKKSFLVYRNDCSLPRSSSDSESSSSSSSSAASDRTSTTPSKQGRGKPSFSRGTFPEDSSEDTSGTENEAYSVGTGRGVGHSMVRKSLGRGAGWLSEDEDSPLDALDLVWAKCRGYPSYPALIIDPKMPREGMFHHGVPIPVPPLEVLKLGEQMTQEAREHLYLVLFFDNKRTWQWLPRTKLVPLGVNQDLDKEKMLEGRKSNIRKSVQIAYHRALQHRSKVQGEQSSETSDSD
UniProt P53355, 13-275 limits assumed: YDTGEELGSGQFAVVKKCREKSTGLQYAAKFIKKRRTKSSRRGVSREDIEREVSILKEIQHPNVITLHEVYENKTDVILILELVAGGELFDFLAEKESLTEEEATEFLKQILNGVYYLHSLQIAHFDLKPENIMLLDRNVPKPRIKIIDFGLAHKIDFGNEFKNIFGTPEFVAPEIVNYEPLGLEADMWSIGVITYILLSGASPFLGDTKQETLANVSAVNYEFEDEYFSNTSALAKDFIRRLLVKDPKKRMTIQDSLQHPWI
UniProt Q13043, 1-311 limits assumed: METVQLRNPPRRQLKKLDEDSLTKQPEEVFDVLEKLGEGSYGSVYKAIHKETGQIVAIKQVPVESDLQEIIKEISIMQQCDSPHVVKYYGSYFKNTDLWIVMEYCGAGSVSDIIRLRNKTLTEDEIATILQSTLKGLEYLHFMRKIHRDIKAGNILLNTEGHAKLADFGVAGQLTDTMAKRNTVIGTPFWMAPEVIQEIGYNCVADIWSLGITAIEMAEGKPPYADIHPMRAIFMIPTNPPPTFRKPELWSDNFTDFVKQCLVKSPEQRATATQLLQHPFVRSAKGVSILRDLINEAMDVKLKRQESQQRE
UniProt Q15375, 590-899 limits assumed: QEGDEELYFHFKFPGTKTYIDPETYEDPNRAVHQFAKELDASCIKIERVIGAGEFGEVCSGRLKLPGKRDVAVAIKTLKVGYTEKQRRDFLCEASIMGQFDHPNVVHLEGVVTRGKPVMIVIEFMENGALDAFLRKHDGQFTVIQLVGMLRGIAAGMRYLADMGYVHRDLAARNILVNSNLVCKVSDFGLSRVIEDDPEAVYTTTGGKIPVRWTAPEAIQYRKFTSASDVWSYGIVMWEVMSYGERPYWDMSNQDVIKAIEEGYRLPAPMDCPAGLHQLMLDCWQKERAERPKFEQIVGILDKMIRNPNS
UniProt O95747, 17-291 limits assumed: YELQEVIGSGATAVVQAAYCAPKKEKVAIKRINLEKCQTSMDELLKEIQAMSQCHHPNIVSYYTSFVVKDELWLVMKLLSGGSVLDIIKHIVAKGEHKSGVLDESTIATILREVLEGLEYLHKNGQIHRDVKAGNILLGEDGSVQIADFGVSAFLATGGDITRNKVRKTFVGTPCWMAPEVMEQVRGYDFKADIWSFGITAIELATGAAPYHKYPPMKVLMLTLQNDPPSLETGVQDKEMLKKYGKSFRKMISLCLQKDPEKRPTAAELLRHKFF
UniProt P17948, 801-1158 limits assumed: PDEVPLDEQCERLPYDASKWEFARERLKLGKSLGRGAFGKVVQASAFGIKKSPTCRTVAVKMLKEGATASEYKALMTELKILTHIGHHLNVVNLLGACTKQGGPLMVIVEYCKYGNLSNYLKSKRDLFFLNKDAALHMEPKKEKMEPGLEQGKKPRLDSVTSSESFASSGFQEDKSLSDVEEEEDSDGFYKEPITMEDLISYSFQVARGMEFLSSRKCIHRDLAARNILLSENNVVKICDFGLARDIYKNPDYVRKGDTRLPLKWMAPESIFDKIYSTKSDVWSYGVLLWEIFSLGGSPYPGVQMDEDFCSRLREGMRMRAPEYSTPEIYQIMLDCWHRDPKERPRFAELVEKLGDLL
UniProt O15264: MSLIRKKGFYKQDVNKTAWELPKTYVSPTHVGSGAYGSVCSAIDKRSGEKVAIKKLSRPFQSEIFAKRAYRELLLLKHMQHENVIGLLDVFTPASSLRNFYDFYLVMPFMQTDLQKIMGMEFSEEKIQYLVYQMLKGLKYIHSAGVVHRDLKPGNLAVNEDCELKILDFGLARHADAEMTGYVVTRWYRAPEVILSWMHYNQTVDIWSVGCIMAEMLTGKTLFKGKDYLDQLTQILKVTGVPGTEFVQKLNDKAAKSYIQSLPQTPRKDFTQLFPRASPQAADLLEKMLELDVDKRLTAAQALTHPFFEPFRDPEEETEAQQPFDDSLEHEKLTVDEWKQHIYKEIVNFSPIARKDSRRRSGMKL
UniProt O75385, 1-283 limits assumed: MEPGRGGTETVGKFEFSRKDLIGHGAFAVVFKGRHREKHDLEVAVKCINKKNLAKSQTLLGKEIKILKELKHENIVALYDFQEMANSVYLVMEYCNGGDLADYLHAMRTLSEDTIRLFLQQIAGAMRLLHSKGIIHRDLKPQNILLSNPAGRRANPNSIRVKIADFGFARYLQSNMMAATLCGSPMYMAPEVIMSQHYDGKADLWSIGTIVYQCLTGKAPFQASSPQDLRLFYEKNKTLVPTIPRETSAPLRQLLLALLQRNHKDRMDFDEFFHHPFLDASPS
UniProt P45983, 1-364 limits assumed: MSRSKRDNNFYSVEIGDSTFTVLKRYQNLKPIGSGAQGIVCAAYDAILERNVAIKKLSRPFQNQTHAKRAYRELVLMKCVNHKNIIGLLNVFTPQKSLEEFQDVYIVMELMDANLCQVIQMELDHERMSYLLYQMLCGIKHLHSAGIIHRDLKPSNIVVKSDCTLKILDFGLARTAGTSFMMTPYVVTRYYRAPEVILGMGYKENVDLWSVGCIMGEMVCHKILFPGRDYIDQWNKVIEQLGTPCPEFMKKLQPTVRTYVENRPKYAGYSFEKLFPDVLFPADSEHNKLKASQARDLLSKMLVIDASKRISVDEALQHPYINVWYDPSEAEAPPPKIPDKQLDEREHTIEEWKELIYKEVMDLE
UniProt Q96PY6, 1-328 limits assumed: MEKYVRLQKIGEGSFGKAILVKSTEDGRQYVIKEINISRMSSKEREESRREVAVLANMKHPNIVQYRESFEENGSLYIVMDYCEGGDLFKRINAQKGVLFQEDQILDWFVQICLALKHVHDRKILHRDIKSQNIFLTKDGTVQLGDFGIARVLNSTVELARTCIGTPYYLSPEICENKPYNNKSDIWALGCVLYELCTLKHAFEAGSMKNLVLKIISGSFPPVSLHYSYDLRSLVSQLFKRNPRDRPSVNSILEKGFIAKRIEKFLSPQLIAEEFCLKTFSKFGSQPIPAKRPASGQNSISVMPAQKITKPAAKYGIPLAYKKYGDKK

How the values were obtained:
Test in all cases: DSF kinase panel
Conditions in all cases: 10 μM
MELK = MELK (Homo sapiens, UniProt Q14680)
CSNK1E = CSNK1E (Homo sapiens, UniProt P49674)
PAK4 = PAK4 (Homo sapiens, UniProt O96013)
STLK3 = STLK3 (Homo sapiens, UniProt Q9UEW8)
CLK1 = CLK1 (Homo sapiens, UniProt P49759)
NDR2 = NDR2 (Homo sapiens, UniProt Q9Y2H1)
CAMK2B = CAMK2B (Homo sapiens, UniProt Q13554)
p38a = p38a (Homo sapiens, UniProt Q16539)
ATK3 = ATK3 (Homo sapiens, UniProt Q9Y243)
BMPR2 = BMPR2 (Homo sapiens, UniProt Q13873)
AurA = AurA (Homo sapiens, UniProt O14965)
CK1d = CK1d (Homo sapiens, UniProt P48730)
FECH = FECH (Homo sapiens, UniProt P22830)
PCTAIRE1 = PCTAIRE1 (Homo sapiens, UniProt Q00536)
CDK2 = CDK2 (Homo sapiens, UniProt P24941)
EphA2 = EphA2 (Homo sapiens, UniProt P29317)
MSK1_b = MSK1_b (Homo sapiens, UniProt O75582)
BRPF1 = BRPF1 (Homo sapiens, UniProt P55201)
DYRK1A = DYRK1A (Homo sapiens, UniProt Q13627)
DAPK1 = DAPK1 (Homo sapiens, UniProt P53355)
NEK2 = NEK2 (Homo sapiens, UniProt P51955)
SRC = SRC (Homo sapiens, UniProt P12931)
CK2a1 = CK2a1 (Homo sapiens, UniProt P68400)
MST1 = MST1 (Homo sapiens, UniProt Q13043)
MER = MER (Homo sapiens, UniProt Q12866)
DAPK3 = DAPK3 (Homo sapiens, UniProt O43293)
GPRK5 = GPRK5 (Homo sapiens, UniProt P34947)
MARK4 = MARK4 (Homo sapiens, UniProt Q96L34)
FES = FES (Homo sapiens, UniProt P07332)
LOK = LOK (Homo sapiens, UniProt O94804)
EPHA7 = EPHA7 (Homo sapiens, UniProt Q15375)
TTK = TTK (Homo sapiens, UniProt P33981)
ULK3 = ULK3 (Homo sapiens, UniProt Q6PHR2)
CAMK1G = CAMK1G (Homo sapiens, UniProt Q96NX5)
SRPK1 = SRPK1 (Homo sapiens, UniProt Q96SB4)
OSR1 = OSR1 (Homo sapiens, UniProt O95747)
FLT1 = FLT1 (Homo sapiens, UniProt P17948)
p38d = p38d (Homo sapiens, UniProt O15264)
ULK1 = ULK1 (Homo sapiens, UniProt O75385)
JNK1 = JNK1 (Homo sapiens, UniProt P45983)
DMPK1 = DMPK1 (Homo sapiens, UniProt Q09013)
NEK1 = NEK1 (Homo sapiens, UniProt Q96PY6)

OC[C@H](O)Cn1cc(-c2c(Cl)cnc3[nH]ccc23)nn1
ΔTm MELK (MELK): 3.7 °C
ΔTm CSNK1E (CSNK1E): 2.9 °C
ΔTm PAK4 (PAK4): 2.5 °C
ΔTm STLK3 (STLK3): 1.2 °C
ΔTm CLK1 (CLK1): 3.5 °C
ΔTm NDR2 (NDR2): -0.9 °C
ΔTm CAMK2B (CAMK2B): 0.7 °C
ΔTm p38a (p38a): -0.7 °C
ΔTm ATK3 (ATK3): -0.2 °C
ΔTm BMPR2 (BMPR2): 4.8 °C
ΔTm AurA (AurA): 7.0 °C
ΔTm CK1d (CK1d): 4.1 °C
ΔTm FECH (FECH): -1.2 °C
ΔTm PCTAIRE1 (PCTAIRE1): -0.1 °C
ΔTm CDK2 (CDK2): 0.2 °C
ΔTm EphA2 (EphA2): -0.4 °C
ΔTm MSK1_b (MSK1_b): 8.0 °C
ΔTm BRPF1 (BRPF1): -1.2 °C
ΔTm DYRK1A (DYRK1A): 1.0 °C
ΔTm DAPK1 (DAPK1): 2.2 °C
ΔTm NEK2 (NEK2): -1.5 °C
ΔTm SRC (SRC): 0.1 °C
ΔTm CK2a1 (CK2a1): 1.0 °C
ΔTm MST1 (MST1): 2.4 °C
ΔTm MER (MER): 0.2 °C
ΔTm DAPK3 (DAPK3): 4.5 °C
ΔTm GPRK5 (GPRK5): 1.2 °C
ΔTm MARK4 (MARK4): 2.0 °C
ΔTm FES (FES): 0.5 °C
ΔTm LOK (LOK): -1.5 °C
ΔTm EPHA7 (EPHA7): 0.9 °C
ΔTm TTK (TTK): 1.6 °C
ΔTm ULK3 (ULK3): 5.6 °C
ΔTm CAMK1G (CAMK1G): 1.6 °C
ΔTm SRPK1 (SRPK1): -0.2 °C
ΔTm OSR1 (OSR1): 1.0 °C
ΔTm FLT1 (FLT1): 3.6 °C
ΔTm p38d (p38d): 0.6 °C
ΔTm ULK1 (ULK1): 2.6 °C
ΔTm JNK1 (JNK1): 1.4 °C
ΔTm DMPK1 (DMPK1): 1.4 °C
ΔTm NEK1 (NEK1): 0.7 °C

NC(=O)Cn1cc(-c2c(Cl)cnc3[nH]ccc23)nn1
ΔTm MELK (MELK): 3.2 °C
ΔTm CSNK1E (CSNK1E): 2.3 °C
ΔTm PAK4 (PAK4): 1.7 °C
ΔTm STLK3 (STLK3): 0.9 °C
ΔTm CLK1 (CLK1): 3.3 °C
ΔTm NDR2 (NDR2): -1.1 °C
ΔTm CAMK2B (CAMK2B): 0.0 °C
ΔTm p38a (p38a): -0.7 °C
ΔTm ATK3 (ATK3): 0.0 °C
ΔTm BMPR2 (BMPR2): 3.8 °C
ΔTm AurA (AurA): 7.2 °C
ΔTm CK1d (CK1d): 3.8 °C
ΔTm FECH (FECH): 7.0 °C
ΔTm PCTAIRE1 (PCTAIRE1): -0.6 °C
ΔTm CDK2 (CDK2): 0.0 °C
ΔTm EphA2 (EphA2): -0.3 °C
ΔTm MSK1_b (MSK1_b): 5.6 °C
ΔTm BRPF1 (BRPF1): -1.4 °C
ΔTm DYRK1A (DYRK1A): 1.3 °C
ΔTm DAPK1 (DAPK1): 1.5 °C
ΔTm NEK2 (NEK2): -1.0 °C
ΔTm SRC (SRC): -0.2 °C
ΔTm CK2a1 (CK2a1): 0.7 °C
ΔTm MST1 (MST1): 1.2 °C
ΔTm MER (MER): -0.6 °C
ΔTm DAPK3 (DAPK3): 4.3 °C
ΔTm GPRK5 (GPRK5): 1.0 °C
ΔTm MARK4 (MARK4): 1.7 °C
ΔTm FES (FES): 0.7 °C
ΔTm LOK (LOK): -1.9 °C
ΔTm EPHA7 (EPHA7): 0.7 °C
ΔTm TTK (TTK): 1.4 °C
ΔTm ULK3 (ULK3): 4.4 °C
ΔTm CAMK1G (CAMK1G): 1.4 °C
ΔTm SRPK1 (SRPK1): -0.3 °C
ΔTm OSR1 (OSR1): -0.1 °C
ΔTm FLT1 (FLT1): 4.6 °C
ΔTm p38d (p38d): 0.3 °C
ΔTm ULK1 (ULK1): 1.8 °C
ΔTm JNK1 (JNK1): 0.8 °C
ΔTm DMPK1 (DMPK1): 1.0 °C
ΔTm NEK1 (NEK1): 0.6 °C

Clc1cnc2[nH]ccc2c1-c1cn(-c2ccccc2)nn1
ΔTm MELK (MELK): 1.9 °C
ΔTm CSNK1E (CSNK1E): 1.1 °C
ΔTm PAK4 (PAK4): 1.8 °C
ΔTm STLK3 (STLK3): 0.6 °C
ΔTm CLK1 (CLK1): 3.5 °C
ΔTm NDR2 (NDR2): -1.1 °C
ΔTm CAMK2B (CAMK2B): -0.1 °C
ΔTm p38a (p38a): -0.7 °C
ΔTm ATK3 (ATK3): 0.2 °C
ΔTm BMPR2 (BMPR2): 5.4 °C
ΔTm AurA (AurA): 5.5 °C
ΔTm CK1d (CK1d): 1.4 °C
ΔTm FECH (FECH): -2.4 °C
ΔTm PCTAIRE1 (PCTAIRE1): 0.0 °C
ΔTm CDK2 (CDK2): 0.0 °C
ΔTm EphA2 (EphA2): -0.6 °C
ΔTm MSK1_b (MSK1_b): 4.7 °C
ΔTm BRPF1 (BRPF1): -0.9 °C
ΔTm DYRK1A (DYRK1A): 1.2 °C
ΔTm DAPK1 (DAPK1): 3.0 °C
ΔTm NEK2 (NEK2): -1.0 °C
ΔTm SRC (SRC): -0.3 °C
ΔTm CK2a1 (CK2a1): 1.2 °C
ΔTm MST1 (MST1): 1.0 °C
ΔTm MER (MER): -0.1 °C
ΔTm DAPK3 (DAPK3): 4.7 °C
ΔTm GPRK5 (GPRK5): 0.3 °C
ΔTm MARK4 (MARK4): 2.3 °C
ΔTm FES (FES): -0.7 °C
ΔTm LOK (LOK): -1.5 °C
ΔTm EPHA7 (EPHA7): 1.3 °C
ΔTm TTK (TTK): 1.4 °C
ΔTm ULK3 (ULK3): 8.9 °C
ΔTm CAMK1G (CAMK1G): 0.9 °C
ΔTm SRPK1 (SRPK1): -0.3 °C
ΔTm OSR1 (OSR1): 0.3 °C
ΔTm FLT1 (FLT1): 3.2 °C
ΔTm p38d (p38d): 0.2 °C
ΔTm ULK1 (ULK1): 2.9 °C
ΔTm JNK1 (JNK1): 1.1 °C
ΔTm DMPK1 (DMPK1): 0.9 °C
ΔTm NEK1 (NEK1): 0.8 °C
